# Data: PubChem BioAssay AID1467 (National Center for Advancing Translational Sciences (NCATS), 2008)
# Protein sequences, listed by entry. Tags and fused reporters are not part of them.
# UniProt P06280, whole entry: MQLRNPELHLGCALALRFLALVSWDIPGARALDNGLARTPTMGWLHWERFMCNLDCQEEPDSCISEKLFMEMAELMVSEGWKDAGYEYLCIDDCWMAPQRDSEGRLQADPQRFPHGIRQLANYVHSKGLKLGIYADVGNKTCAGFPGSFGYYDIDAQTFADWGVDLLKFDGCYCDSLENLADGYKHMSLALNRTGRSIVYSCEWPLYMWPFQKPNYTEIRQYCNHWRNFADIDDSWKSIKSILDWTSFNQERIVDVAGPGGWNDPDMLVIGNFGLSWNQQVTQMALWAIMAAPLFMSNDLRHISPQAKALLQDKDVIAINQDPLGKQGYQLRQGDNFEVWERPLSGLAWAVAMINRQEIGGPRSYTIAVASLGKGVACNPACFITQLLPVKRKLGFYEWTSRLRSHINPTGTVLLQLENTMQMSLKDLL
# “And” between values parts separate entries of the source, which are not always exact repeats. Equal entries are not always repeated. Only a part is listed here, and it is no random draw. The source made the active and inactive calls. The call rests on the fitted dose curve; in most records, active means well fitted curve in the direction sought with a large enough effect; inconclusive means small, poorly fitted or top-dose-only effect, or effect the other way, or another doubt; inactive means no such curve, though single readings can be large or run the other way.
# Biological target: Alpha-galactosidase A (Homo sapiens) (UniProt P06280)
# Assay: qHTS Assay for Inhibitors of Human alpha-Galactosidase at pH 4.5.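 Further: 0% = full activity with enzyme and -100% = basal without enzyme.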
# Conditions: purified enzyme, 4-MU-alpha-Gal fluorescence; at 105 µM (top of the series) unless noted
# Text: NIH Chemical Genomics Center [NCGC]
# NIH Molecular Libraries Probe Production centers Network [MLPCN]
# Assay Submitter (PI): Wei Zheng
# Alpha-galactosidase is a homodimeric glycoprotein that hydrolyzes the terminal alpha-galactosyl moieties from glycolipids and glycoproteins. Deficiency of this enzyme results in Fabry Disease with progressive accumulation of globotriaosylceramide and other glycosphingolipids in vascular endothelial cells that causes renal failure, myocardial infarction and stroke, and premature death in patients. It has been reported that the improper folding and trafficking of alpha-galactosidase resulting from the genetic mutations may account for a significant numbers of Fabry patients. […] We optimized this alpha-galactosidase assay in 1536-well plate format for identifying the novel small molecule inhibitors with the structures other than the sugar analogs in order to develop the new pharmacological chaperones. Although this assay has the same protocol as PubChem AID 992, this is a separate project and, therefore, is published as a separate assay
# NCGC Assay Protocol Summary:
# This is a fluorogenic enzyme assay with 4-Methylumbelliferyl alpha-D-galactopyranoside as the substrate and human […] as the enzyme preparation. Upon the hydrolysis of this fluorogenic substrate, the resulting product, […]. 4-Methyllumbelliferone, can be excited at 365 nm and emits at 440 nm. This fluorescence which can be detected by a standard fluorescence plate reader. Data were normalized to the controls for basal activity (without enzyme) and 100% activity (with enzyme). In the AC50 values were determined from concentration-response data modeled with the standard Hill equation.
# Assay buffer: 50 mM citric acid (titrated with potassium phosphate to pH 4.5), 0.005% Tween-20, pH 4.5. (pH 4.5 is an optimal condition for this enzyme assay)
# 1536-well assay protocol for the human alpha-galactosidase:
# (1) Add 2 ul/well of enzyme (12 nM final)
# (2) Add 23 nL compounds in DMSO solution. The final titration was 0.7 nM to 77 uM.
# (3) Add 1 ul of substrate (400 uM final)
# (4) Incubate at room temperature for 20 min.
# (5) Add 2 ul stop solution (1M NaOH and 1M Glycine mixture, pH 10)
# (6) Detect the assay plate in a ViewLux plate reader (PerkinElmer) with Ex=365 nm and Em=440nm.
# Keywords: MLSMR, MLPCN, NIH Roadmap, qHTS, NCGC, : Alpha-galactosidase, Fabry Disease, pharmacological chaperone, chaperone therapy
row,Structure (SMILES),"activity change, negative = inhibition"
1,Cc1ccc(OP(=O)(Nc2ccccn2)Oc2ccc(C)cc2)cc1,inactive: -23.4%
2,COC(=O)c1cc2c(s1)N=C(c1ccccc1)N(C)P2(=O)N1CCOCC1 (stereo not drawn),inactive: -15.9%
3,O=C(O)COc1ccc([As](=O)(O)O)cc1[N+](=O)[O-],inactive: -1.57%
4,Nc1ccccc1[As](=O)(O)c1ccccc1,inactive: 12.7%
5,O=P(Nc1nccs1)(Oc1ccccc1)Oc1ccccc1,inactive: 1.13%
6,O=P(Nc1nccs1)(c1ccccc1)c1nc2ccccc2s1 (stereo not drawn),inactive: 2.78%
7,CCOP1(=S)c2c(C)nn(CCC#N)c2N=C(c2ccccc2F)N1C (stereo not drawn),inactive: 1.61%
8,CS(=O)(=O)c1cc([N+](=O)[O-])c2no[n+]([O-])c2c1,inactive: -2.11%
9,CN(C(=O)Cc1ccccc1)[C@@H]1CC[C@]2(CCCO2)C[C@H]1N1CCCC1,inactive: 6.06% and inactive: 2.56%
10,CCOP1(=S)c2c(C)nn(CCC#N)c2N=C(c2ccc(F)cc2)N1C (stereo not drawn),inactive: -13.3%
11,O=[N+]([O-])OCC(CO[N+](=O)[O-])(CO[N+](=O)[O-])CO[N+](=O)[O-],inactive: -0.451%
12,CC1=NCCc2c1[nH]c1ccccc21.O=[N+]([O-])c1cc([N+](=O)[O-])c(O)c([N+](=O)[O-])c1,inactive: -9.61%
13,O=[N+]([O-])c1ccc2c(c1)nnn2O,inactive: 7.48%
14,O=[N+]([O-])CC(O)c1ccc([N+](=O)[O-])cc1 (stereo not drawn),inactive: -2.97%
15,NC(=O)Nc1ccc([As](=O)(O)O)cc1,inactive: -7.2% and inactive: -4.88%
16,Cc1cc(C)cc(OP(C)(=O)Nc2ccc(C)cc2C)c1 (stereo not drawn),inactive: -4.26%
17,Cc1cccc(OCC(=O)OC2CN3CCC2CC3)c1 (stereo not drawn),inactive: 2.07%
18,O=[As](O)(c1cccc(O)c1)c1cccc(O)c1,inactive: -2.63%
19,CCOC(=O)c1ccc(NP(C)(=O)Oc2cc(C)cc(C)c2)cc1 (stereo not drawn),inactive: -2.3%
20,CN(C(=O)Cc1ccc(Cl)c(Cl)c1)[C@@H]1CC[C@]2(CCCO2)C[C@H]1N1CCCC1,inactive: -17.5%
21,O=C(OC1CN2CCC1CC2)c1ccc(Cl)cc1 (stereo not drawn),inactive: -2.04%
22,COc1ccccc1OP(C)(=O)Nc1cccc(Br)c1 (stereo not drawn),inactive: 2.33%
23,O=[As](O)(O)c1cccnc1,inactive: -0.53%
24,COc1cc(C(=O)NCC2(N3CCOCC3)CCCCC2)cc(Cl)c1OC(C)C,inactive: -13.1%

row,Structure (SMILES),"activity change, negative = inhibition"
1,CCOP(=O)(Nc1cccc2ccccc12)OCC,inactive: 4.1%
2,Cc1ccc(NCCc2c([N+](=O)[O-])cc([N+](=O)[O-])cc2[N+](=O)[O-])cc1,inactive: 1.51%
3,Nc1cccc2c([As](=O)(O)O)cccc12,inactive: 1.05%
4,Cc1cc(C)cc(OP(C)(=O)Nc2ccccn2)c1 (stereo not drawn),inactive: 1.72%
5,CP(=O)(Nc1cccc(Br)c1)Oc1ccccc1 (stereo not drawn),inactive: -4.42%
6,Cc1ccc(C)c(NP(C)(=O)Oc2ccccc2)c1 (stereo not drawn),inactive: -8.83%
7,CCCOP(=S)(Nc1nc(N)cc(=O)[nH]1)OCCC,inactive: -12.5%
8,CC(C)(C)C(=O)NC(Sc1ncccn1)C(Cl)(Cl)Cl (stereo not drawn),inactive: -7.72%
9,Clc1n[nH]nc1-c1nn[nH][15n]1,inactive: -0.863%
10,O=[N+]([O-])c1cc([N+](=O)[O-])c(-n2nnc3ccccc32)c([N+](=O)[O-])c1,inactive: -4.79%
11,O=P1(Nc2ccccn2)COc2ccccc2OC1,inactive: 9.75%
12,CCOP(=O)(Nc1ccc(C)cn1)OCC,inactive: 4.06%
13,CN(CCCl)Cc1cc(Cl)c(NC2=NCCN2)c(Cl)c1,inactive: -3.13%
14,CN(C(=O)Cc1ccc(Cl)c(Cl)c1)[C@@H]1CCCC[C@H]1N1CCCC1,inactive: -19.1% and inactive: -1.61%
15,CC(C)/C=N\N=C(\N)N[N+](=O)[O-],inactive: -7.55%
16,Cc1nc2ccc3ccccc3c2s1.O=[N+]([O-])c1cc([N+](=O)[O-])c(O)c([N+](=O)[O-])c1,inactive: -3.46%
17,O=[As](O)(c1ccccc1Br)c1ccccc1Br,inactive: 0.385%
18,CN(C)C1(CNC(=O)c2ccc(S(C)(=O)=O)cc2)CCCCC1,inactive: 13.4%
19,O=[N+]([O-])c1cc([N+](=O)[O-])c(Nc2nnnn2CCO)c([N+](=O)[O-])c1,inactive: -10.8%
20,O=C(/C=C/c1ccccc1)OC1CN2CCC1CC2 (stereo not drawn),inactive: 0.569%
21,CC1CCC(C(C)C)C(OP(=O)(Nc2ccccn2)c2ccccc2)C1 (stereo not drawn),inactive: -12.1%
22,Cc1nn(-c2ccccc2)c2c1P(=O)(N1CCOCC1)N(C)C(c1ccccc1)=N2 (stereo not drawn),inactive: -0.77%
23,COc1cc(C2NCCC3(OCCO3)C2(C)C)cc(OC)c1OC.O=[N+]([O-])c1cc([N+](=O)[O-])c(O)c([N+](=O)[O-])c1 (stereo not drawn),inactive: -7.1%
24,CCCOc1ccc(NP(C)(=O)Oc2ccc(Cl)cc2)cc1 (stereo not drawn),inactive: -0.612%
